# Results: ChEMBL document CHEMBL1138152, “Design and synthesis of novel hydrazide-linked bifunctional peptides as delta/mu opioid receptor agonists and CCK-1/CCK-2 receptor antagonists” (J Med Chem, 2006)
# Amino acid sequences for entries named in this document (tags omitted).
# UniProt P41143, whole entry, looked up: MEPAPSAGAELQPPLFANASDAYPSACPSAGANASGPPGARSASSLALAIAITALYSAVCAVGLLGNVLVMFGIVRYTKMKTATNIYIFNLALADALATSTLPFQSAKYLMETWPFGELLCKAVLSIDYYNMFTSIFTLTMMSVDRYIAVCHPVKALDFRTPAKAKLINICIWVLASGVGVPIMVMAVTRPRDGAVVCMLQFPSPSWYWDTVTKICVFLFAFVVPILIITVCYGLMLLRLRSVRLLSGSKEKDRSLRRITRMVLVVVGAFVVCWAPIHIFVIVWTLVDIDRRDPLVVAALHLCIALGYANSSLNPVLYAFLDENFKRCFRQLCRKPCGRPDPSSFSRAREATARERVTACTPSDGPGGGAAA
# Molecular target: Delta-type opioid receptor (Homo sapiens, UniProt P41143)
# Experiment: Inhibition of [35S]GTP-gamma-S binding to human delta opioid receptor expressed in CHO cells
# Format: functional, cell-based
# Summary of the method: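 CHO-expressed receptor membranes (10 µg) in 50 mM HEPES pH 7.4 with EDTA, 5 mM MgCl2, 30 µM GDP, DTT, 100 mM NaCl, PMSF, BSA and 0.1 nM [35S]GTPγS. Test drug at various concentrations, duplicate or triplicate, 90 min at 30 °C. Nonspecific binding with 10 µM GTPγS.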
compound,measurement,value
C[C@@H](NC(=O)[C@@H](N)Cc1ccc(O)cc1)C(=O)NCC(=O)N[C@@H](Cc1ccccc1)C(=O)NNC(=O)[C@H](Cc1ccccc1)NC(=O)CNC(=O)[C@@H](C)NC(=O)[C@@H](N)Cc1ccc(O)cc1,Emax,83%
